By Solubility is commonly meant the dissolved amount per volume that the medium holds. Read a high Solubility as much dissolved substance.

The data set can be described thus: Solubility. The settings on record: Table 7.

Regarding Maleic hydrazide, the Solubility was 100 mM.

These data come from US20230113398A1, “INEXPENSIVE METAL-FREE ORGANIC REDOX FLOW BATTERY (ORBAT) FOR GRID-SCALE STORAGE” (UNIVERSITY OF SOUTHERN CALIFORNIA, priority 2013, published 2023).
